Reference: PubChem BioAssay AID2071 (Sanford-Burnham Center for Chemical Genomics, 2009)
Only a part is listed here, and it is no random draw. Activity calls are given as the source filed them. No stated cut-off is given here; in the data, active means inhibition mostly above about 24% (no sharp cut-off); inactive means mostly below about 32%.

Experiment: NALP1 inflammasome inhibitors in reconstituted yeast, colorimetric, S. cerevisiae, triplicate retest (AID 2071)
Conditions: S. cerevisiae NALP1/ASC/caspase-1 growth, X-gal OD620, 72 h; at 10 µM; stronger effect = higher value

| Compound | inhibition |
| --- | --- |
| CC(C)(C)C(=O)NC(Sc1ccccc1)C(Cl)(Cl)Cl (configuration not stated) | inactive: -0.3% |
| CC(C)C(=O)NC(Sc1ccccc1)C(Cl)(Cl)Cl (configuration not stated) | inactive: 35.4% |
| O=P(Nc1nccs1)(c1ccccc1)c1ccccc1 | inactive: 12.5% |
| c1nnnn1CCn1cnnn1 | inactive: 20.3% |
| O=[As](O)(c1ccccc1)c1ccc(O)cc1 | inactive: -1.6% |
| O=[N+]([O-])c1ccc(O)c(/C=N/Nc2ccc([N+](=O)[O-])cc2[N+](=O)[O-])c1 | inactive: 33.6% |
| CC(=O)NC(SC(=S)N(C)C)C(Cl)(Cl)Cl (configuration not stated) | active: 80.1% |
| O=C(OC1CN2CCC1CC2)c1cccc(Cl)c1 (configuration not stated) | inactive: 16.5% |
| C(Cc1nn[nH]n1)Cc1nn[nH]n1 | inactive: 11% |
| Nc1ccc([As](=O)(O)c2ccc([N+](=O)[O-])cc2)cc1 | inactive: 17.5% |
| O=P(Nc1ccccn1)(c1ccc(Br)cc1)c1ccc(Br)cc1 | inactive: 12.4% |
| CN(C)C1(CNC(=O)c2ccc(Cl)c(S(N)(=O)=O)c2)CCCCC1 | inactive: 5.8% |
| C[C@H]1OP(=O)(Oc2ccccc2)[C@H](O)[C@H](O)[C@H]1N=[N+]=[N-] (some centres not stated) | inactive: -1.1% |
| O=P(Nc1nc2ccccc2s1)(c1ccccc1)c1ccccc1 | inactive: 12.6% |
| O=P1(Nc2ncccn2)COc2ccccc2OC1 | inactive: 8.7% |
| Nc1cccc([As](=O)(O)c2ccccc2)c1 | inactive: -12.2% |
| O=[As](O)(c1cccs1)c1cccs1 | inactive: -19.6% |
| Cc1ccc(OCC(=O)OC2CN3CCC2CC3)cc1 (configuration not stated) | inactive: 13.1% |
| O=P1(Nc2ccc(Br)cn2)COc2ccccc2OC1 | inactive: 2.9% |
| CC1CCC(C(C)C)C(OP(=O)(Nc2ccccn2)c2ccccc2)C1 (configuration not stated) | inactive: -4.9% |
| Cc1ccc(C(=O)OC2CN3CCC2CC3)cc1 (configuration not stated) | inactive: 12% |
| Cc1nn(-c2ccccc2)c2c1P(=O)(N1CCOCC1)N(C)C(c1ccccc1)=N2 (configuration not stated) | inactive: -0.1% |
| CN(C)C1(CNC(=O)c2ccc(S(C)(=O)=O)cc2)CCCCC1 | inactive: 15.5% |
| O=C(/C=C/c1ccccc1)OC1CN2CCC1CC2 (configuration not stated) | inactive: 14.9% |
| CC(C)/C=N\N=C(\N)N[N+](=O)[O-] | inactive: -20.4% |
| CN(C(=O)Cc1ccc(Cl)c(Cl)c1)[C@@H]1CCCC[C@H]1N1CCCC1 | inactive: 12.9% |

| Compound | inhibition |
| --- | --- |
| O=[As](O)(c1ccccc1Br)c1ccccc1Br | inactive: 18.1% |
| CCOP(=O)(NC(=NC(C)c1ccccc1)NC(C)c1ccccc1)OCC (configuration not stated) | inactive: 7.8% |
| O=P1(Nc2ccccn2)COc2ccccc2OC1 | inactive: 0.1% |
| CCC1=CC2Cc3nc4ccc(Cl)cc4c(N)c3C(C1)C2 (configuration not stated) | inactive: 20.4% |
| CCOP(=O)(Nc1ccc(C)cn1)OCC | inactive: -10% |
| CC(C)(C)C(=O)NC(Sc1ncccn1)C(Cl)(Cl)Cl (configuration not stated) | inactive: -7.3% |
| Clc1n[nH]nc1-c1nn[nH][15n]1 | inactive: -16.7% |
| Nc1cccc2c([As](=O)(O)O)cccc12 | inactive: 6% |
| Cc1ccc(NCCc2c([N+](=O)[O-])cc([N+](=O)[O-])cc2[N+](=O)[O-])cc1 | inactive: 24.3% |
| CCCOP(=S)(Nc1nc(N)cc(=O)[nH]1)OCCC | inactive: -3% |
| CCOP(=O)(Nc1cccc2ccccc12)OCC | inactive: 20.4% |
| COc1cc(C2NCCC3(OCCO3)C2(C)C)cc(OC)c1OC (configuration not stated) | inactive: 17.4% |
| O=C(OC1CN2CCC1CC2)c1ccc(Cl)cc1 (configuration not stated) | inactive: 5% |
| CS(=O)(=O)c1ccc(Cl)c(NC(=O)COC(=O)C(O)(c2ccccc2)c2ccccc2)c1 | inactive: -2.7% |
| O=[As](O)(O)c1cccnc1 | inactive: -0.3% |
| COc1cc(C(=O)NCC2(N3CCOCC3)CCCCC2)cc(Cl)c1OC(C)C | inactive: 7.2% |
| O=[As](O)(c1cccc(O)c1)c1cccc(O)c1 | inactive: 3.1% |
| NC(=O)Nc1ccc([As](=O)(O)O)cc1 | inactive: -1.9% |
| CCOP1(=S)c2c(C)nn(CCC#N)c2N=C(c2ccc(F)cc2)N1C (configuration not stated) | inactive: -2.7% |
| CN(C(=O)Cc1ccccc1)[C@@H]1CC[C@]2(CCCO2)C[C@H]1N1CCCC1 | inactive: -8.3% |
| O=[N+]([O-])c1ccc2c(c1)nnn2O | inactive: 0.9% |
| O=P(Nc1nccs1)(Oc1ccccc1)Oc1ccccc1 | inactive: 12.5% |
| O=P(Nc1nccs1)(c1ccccc1)c1nc2ccccc2s1 (configuration not stated) | inactive: -26% |
| CCOP1(=S)c2c(C)nn(CCC#N)c2N=C(c2ccccc2F)N1C (configuration not stated) | inactive: -7.7% |
| CS(=O)(=O)c1cc([N+](=O)[O-])c2no[n+]([O-])c2c1 | inactive: 17.5% |
| Nc1ccccc1[As](=O)(O)c1ccccc1 | inactive: -13.7% |
